# AlphaSeq binding of Ab-14 heavy chain variants to a spike HR2 peptide

The measurements come from Li et al. 2023 (doi:10.1038/s41467-023-39022-2) through the FLAb antibody collection.

Antigen: PDVDLGDISGINAS, a 14-residue peptide of the SARS-CoV-2 spike HR2 region.

Parent: Ab-14, a human scFv built as VH, the linker GGGGSGGGGSGGGGS, VL. Only the CDRs of the heavy chain vary.
VH: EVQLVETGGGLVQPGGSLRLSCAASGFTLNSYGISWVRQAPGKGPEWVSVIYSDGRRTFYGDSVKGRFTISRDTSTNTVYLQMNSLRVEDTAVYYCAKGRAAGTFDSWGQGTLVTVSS
VL: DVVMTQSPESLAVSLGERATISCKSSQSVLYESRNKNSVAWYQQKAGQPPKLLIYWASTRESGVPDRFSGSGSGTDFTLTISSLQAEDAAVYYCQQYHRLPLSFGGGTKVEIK

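The variants were designed computationally from a first round of random CDR variants and then made and measured. Their group label is 14H_En_Gibbs (En: ensemble of fine-tuned language models; Gibbs: Gibbs sampling). Affinity was read by AlphaSeq, a pooled yeast mating assay with surface-displayed partners. Pairs that bind mate more often; barcode pairs of the diploids are counted by sequencing. A regression on co-assayed BCL2-family reference pairs converts the normalised counts of each replicate to an apparent Kd. The assay was run in six technical replicates.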

The parent's heavy chain CDRs are GFTLNSYGIS, VIYSDGRRTFYGDSVK, GRAAGTFDS; each variant's own CDRs replace them letter for letter.
Scale: log10 of Kd in nM, estimated from mating counts; low values are strong binders.
Averages over replicates are reported, and they cover detected replicates only.
"nd" marks a missing value. The strain was present, yet no cells mated with the target were sequenced in that replicate, which points to weak or no binding.
Empty control strains, which show no peptide, gave a signal in 1% of pairings with all heavy chain designs; the median was 2.08 and 95% of these signals were weaker than 0.84. No background was subtracted. For each scFv, signals with the empty controls are counted beside the result, with their mean in brackets.
A sequence measured in both rounds can read differently, since the two assays cover different ranges.
In the paper, a design with two or fewer of six values counts as a poor binder.

| CDR-H1 | CDR-H2 | CDR-H3 | log10 Kd, replicates | mean log10 Kd (nM) | control signals |
|---|---|---|---|---|---|
| GFDLNEYGIS | VIYADGMRQAVVQNVK | GKINQTDSV | nd / nd / nd / nd / nd / nd | nd | 0/18 |
| GDDIDEYGIS | VIYADGHRSQYSEQVK | GYNAGTLDE | nd / nd / nd / nd / nd / nd | nd | 2/18 (1.16) |
| GFDLAEYGIS | VIYADGMRNAYATNFK | GYIGGTIMY | nd / nd / nd / nd / nd / nd | nd | 0/18 |
| GFNLEEYGIS | VIYADGVRASYAENVK | AGGNVIAIG | nd / nd / nd / nd / nd / nd | nd | 0/18 |
| GFDLEKYGIS | VIYADGRRSVYADNVK | GMDGATFGF | nd / nd / nd / nd / nd / nd | nd | 0/18 |
| GQDINEYGIS | VIYADGIRTAYAQSVK | GYHGSQFDI | nd / nd / nd / nd / nd / nd | nd | 0/18 |
| GFDLNEYGIS | VIYADGMRTKASESVK | GTGDGSFQL | nd / 2.34 / nd / nd / nd / nd | 2.34 | 2/18 (3.09) |
| GSDLNEYGIS | VIYADGHRVSYAENVK | GINMAGIFI | nd / nd / nd / nd / nd / nd | nd | 0/18 |
| GFNLGEYGIS | VIYADGRRTFYKDDVK | GHFIVYGVD | nd / nd / nd / nd / nd / nd | nd | 0/18 |
| GFNLNEYGIS | VIYADGMRVRYANNFK | GKLNTTLMV | nd / nd / nd / 3.28 / nd / nd | 3.28 | 0/18 |
| GFSLDEYGIS | VIYADGLRKQYSNKVK | GLEGFFFDQ | nd / nd / nd / nd / nd / nd | nd | 0/18 |
| GKDIEEYGIS | VIYADGMRQAYAESVK | GQVAGTGKF | nd / nd / nd / nd / nd / nd | nd | 0/18 |
| GFGLDEYGIS | VIYADGNRQMYTDSVK | GFNLMLVSV | nd / nd / nd / nd / nd / nd | nd | 0/18 |
| GDSLNEYGIS | VIYADGVRARYADDVK | GENDGLFDQ | nd / 1.42 / nd / nd / nd / nd | 1.42 | 0/18 |
| GDSLEEYGIS | VIYADGKRTAYKNKAK | GQVAGYFDV | nd / nd / nd / nd / nd / 1.49 | 1.49 | 0/18 |
| GMDLGEYGIS | VIYADGERASYTNNFK | GVLGGFLTV | nd / nd / nd / nd / nd / nd | nd | 0/18 |
| GFNLDEYGIS | VIYADGIRAAYKDKVK | GDDILLGWF | nd / nd / nd / nd / nd / nd | nd | 1/18 (1.78) |
| GESLNEYGIS | VIYADGQRVKYSNNVK | GLHAGDFDM | nd / nd / nd / nd / nd / nd | nd | 1/18 (1.66) |
| GFQLDEYGIS | VIYADGVRSSYVDDVK | GEITSAFSV | 1.42 / 1.98 / 1.68 / 1.82 / 2.19 / 1.41 | 1.75 | 1/18 (2.30) |
| GFDLTEYGIS | VIYADGRRVVYQDKVK | GELTGTFDQ | nd / nd / nd / nd / nd / nd | nd | 2/18 (1.40) |
| GFNLNEYGIS | VIYADGQRTSYTDQVK | GVETGAVLD | nd / nd / nd / nd / nd / nd | nd | 0/18 |
| GEDLQEYGIS | VIYADGFRQAYSEKVK | GQHAGFLVK | nd / 1.88 / nd / nd / 2.49 / nd | 2.19 | 0/18 |
| GGDLNEYGIS | VIYADGVRKNYDDSVK | GQTGLFLNI | nd / nd / nd / nd / nd / nd | nd | 0/18 |
| GFNLDEYGIS | VIYADGVRTQYAQSFK | GMNNGYIAG | nd / nd / nd / nd / nd / nd | nd | 0/18 |
| GQDINEYGIS | VIYADGFRLAYVENVK | GENAGSVEV | nd / nd / nd / nd / nd / nd | nd | 0/18 |
| GKDLNEFGIS | VIYADGKRSQYAQDVK | GVLQGQGTV | nd / nd / nd / nd / nd / nd | nd | 0/18 |
| GFDLQELGIS | VIYADGTRQAYSEKVK | GQLAGYLVD | nd / nd / nd / nd / nd / nd | nd | 1/18 (1.84) |
| GEDLNSYGIS | VIYADGLRTVYSDNFK | GNLGGQFDM | nd / nd / nd / nd / nd / nd | nd | 0/18 |
| GFDIEEYGIS | VIYADGSRTEYSDSVK | SGYHFNMDL | nd / nd / nd / nd / nd / nd | nd | 0/18 |
| GKSLDEYGIS | VIYADGLRSVYANSVK | GQFTDTLDL | nd / nd / nd / nd / nd / nd | nd | 0/18 |
| GFSLDEYGIS | VIYADGMRTQYTPNVK | GQTGFDYGL | nd / nd / nd / nd / nd / nd | nd | 0/18 |
| GFNLDEYGIS | VIYADGTRTSYQPNVK | GVKGGHDVT | nd / nd / nd / nd / nd / nd | nd | 0/18 |
| GYDLNEYGIS | VIYADGRRAAYIDDVK | GNVNDHVLV | nd / nd / nd / nd / nd / nd | nd | 0/18 |
| GKDLQEYGVS | VIYADGKREQYAGDVK | GGLTGQFDV | nd / nd / nd / nd / 1.76 / nd | 1.76 | 0/18 |
| GFDINEYGIS | VIFADGMRTAYLNSVK | GQMAGFFIM | nd / nd / nd / nd / nd / nd | nd | 0/18 |
| GFNLEEYGIS | VIYADGKRTFYTDAVK | GTWGVFGLG | nd / nd / nd / nd / nd / nd | nd | 0/18 |
| GFDLMNYGIS | VIYADGKRAAYIDDVK | GYSTGFIDV | 2.04 / nd / nd / nd / nd / nd | 2.04 | 0/18 |
| GFDIEDYGIS | VIYADGMRSSYSQSFK | GLQSGNISV | nd / nd / nd / nd / nd / nd | nd | 0/18 |
| GFQLDEQGIS | VIYADGVRCSYADKVK | GANSGVIDV | nd / nd / nd / nd / nd / nd | nd | 0/18 |
| GFDIMEYGVS | VIYADGVRTAYSQDVK | GENLDSYVD | nd / nd / nd / nd / nd / nd | nd | 0/18 |
| GFSLDEYGIS | VIYADGLRSKYADKVK | GELTQKGDT | nd / nd / nd / nd / nd / nd | nd | 0/18 |
| GKDIEEYGIS | VIYADGVRAAYADSVK | GINMDIMTV | 2.11 / nd / 2.57 / nd / 1.46 / nd | 2.04 | 1/18 (0.88) |
| GFDLNEYGVS | VIYADGQRRAYAANFK | GVNAGGLDI | nd / nd / nd / nd / nd / nd | nd | 1/18 (1.71) |
| GFDLQEYGVS | VIYADGVRSAYTDSVK | GRVTIGYLD | 1.06 / 0.32 / 0.52 / 0.35 / 0.80 / 0.49 | 0.59 | 0/18 |

Repeated from above, the 2 best binders with a signal in all replicates:

| CDR-H1 | CDR-H2 | CDR-H3 | log10 Kd, replicates | mean log10 Kd (nM) | control signals |
|---|---|---|---|---|---|
| GFDLQEYGVS | VIYADGVRSAYTDSVK | GRVTIGYLD | 1.06 / 0.32 / 0.52 / 0.35 / 0.80 / 0.49 | 0.59 | 0/18 |
| GFQLDEYGIS | VIYADGVRSSYVDDVK | GEITSAFSV | 1.42 / 1.98 / 1.68 / 1.82 / 2.19 / 1.41 | 1.75 | 1/18 (2.30) |